From ChEMBL document CHEMBL4340526, “Discovery and Mechanistic Study of Tailor-Made Quinoline Derivatives as Topoisomerase 1 Poison with Potent Anticancer Activity” (J Med Chem, 2019)

Assays:
[1] = biological target: T1, DNA topoisomerase 1 (Homo sapiens) (UniProt P11387); conditions: Sf9, 2 to 25 uM
T1 sequence (whole entry): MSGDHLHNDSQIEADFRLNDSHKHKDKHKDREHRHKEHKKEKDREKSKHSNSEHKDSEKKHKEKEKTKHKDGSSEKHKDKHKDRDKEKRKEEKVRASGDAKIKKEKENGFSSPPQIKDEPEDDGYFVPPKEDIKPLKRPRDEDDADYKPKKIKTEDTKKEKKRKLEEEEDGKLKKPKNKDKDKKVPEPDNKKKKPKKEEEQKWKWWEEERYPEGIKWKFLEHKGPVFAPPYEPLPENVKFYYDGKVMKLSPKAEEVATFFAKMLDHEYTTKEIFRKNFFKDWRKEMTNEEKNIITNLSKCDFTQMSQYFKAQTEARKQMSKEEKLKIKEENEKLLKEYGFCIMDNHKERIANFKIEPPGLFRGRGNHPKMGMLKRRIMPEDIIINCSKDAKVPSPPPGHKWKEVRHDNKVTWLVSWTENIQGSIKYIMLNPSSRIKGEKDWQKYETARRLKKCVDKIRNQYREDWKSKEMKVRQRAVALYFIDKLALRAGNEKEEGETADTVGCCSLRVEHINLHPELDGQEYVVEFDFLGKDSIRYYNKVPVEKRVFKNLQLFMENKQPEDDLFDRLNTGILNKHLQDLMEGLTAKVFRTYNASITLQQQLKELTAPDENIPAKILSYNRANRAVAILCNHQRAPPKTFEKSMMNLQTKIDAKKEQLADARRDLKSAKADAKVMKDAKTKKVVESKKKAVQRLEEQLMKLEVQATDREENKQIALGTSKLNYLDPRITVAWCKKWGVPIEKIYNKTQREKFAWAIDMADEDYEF

[2] = test system: T2, DNA topoisomerase 1 (Homo sapiens), P11387 [N722S]; conditions: MCF7, 1 to 5 uM
T2 sequence (whole entry): T1 sequence (whole entry) with N722S

SMILES: COc1ccc(-c2ccc3ncc(-c4nnco4)c(NCCCn4ccnc4)c3c2)cc1
- inhibition [1]: Active
- inhibition [2]: Active

Positions count from the first letter of the chain named. Active and inactive are the calls of the source. No cut-off for these calls is given here.
